# Source: PubChem BioAssay AID720717 (ICCB-Longwood Screening Facility, Harvard Medical School, 2013)
# Several values for one entry are separate records, joined by “and”; a condition that tells them apart may be missing. Equal entries are not always repeated. The entries are a selection whose mix differs from that of the whole data set. Activity calls are given as the source filed them.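 The calls were made as follows: active = both repeat wells score below -2 in polarization z-score versus plate sample wells, excluding overly bright wells; inactive = the rest.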
# System: LANA (ORF73) N-terminal peptide binding to nucleosomes, Human herpesvirus 8
# Test: inhibitors of KSHV LANA-nucleosome binding, primary screen, biochemical, fluorescence polarization, FITC-LANA1-23, chicken nucleosomes (AID 720717)
# Settings: FITC-LANA1-23 / chicken nucleosome fluorescence polarization; hits give low values
# Procedure, shortened: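 System – purified chicken nucleosomes with FITC-labelled LANA N-terminal peptide (1-23) · Amount – 240 nM purified chicken nucleosomes (480 nM peptide binding sites), final · Also added – 50 nM FITC-LANA1-23 probe · Medium – TEN-BT buffer, pH 7.5 · Incubation – compound with peptide–nucleosome mix 10–45 min at room temperature · Detection – fluorescence polarization, ex 480 nm, em 535 nm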
row,Compound,z-score
1,CN(CCCl)CCCl,inactive: -0.524 and inactive: 0.546
